In one test the target is T1, TORC2 (Homo sapiens, UniProt P42345+P62942).
T1 construct: endogenous in cells; host or cells: PC3 cells
In words: IC50 in PC3 cells, TORC2. Format: cell-based.

Another test concerns the target T2, TORC1 (Homo sapiens, UniProt P42345+P62942).
T2 construct: endogenous in cells; host or cells: PC3 cells
Kind of test: IC50 in PC3 cells, TORC1. Type of test: cell-based.

“C37-[(1S,2R,4S,5R)-5-hyhroxybicyclo[2.2.1]heptane] rapamycin [reference compound]”: the half-maximal inhibitory concentration (IC50) on TORC2 stood at 11 nM; against TORC1 it was 0.045 nM. In addition, the “TORC1/TORC2 Selectivity” value on TORC1 (from IC50 values) was determined as 244x.

For orientation: IC50 means the concentration that inhibits the measured activity by half. Lower therefore signals greater potency in that assay.

Source of the values: patent US20210369684A1 (MOUNT TAM THERAPEUTICS, INC., priority 2018, published 2021).
